For this experiment, the target named is Runt-related transcription factor 1 (Homo sapiens) + Core-binding factor subunit beta (Homo sapiens) (UniProt Q01196+Q13951). As to the kind of experiment: qHTS Assay for Compounds Blocking the Interaction Between CBF-beta and RUNX1 for the Treatment of Acute Myeloid Leukemia. Note: % of control where 0% means no effect. The following applies: AlphaScreen CBFb-His/RUNX1-biotin binding, biochemical. Background: Quantitative high-throughput screening tests each substance at several concentrations.

The chains behind the UniProt entries cited, without tags or fusion partners.
UniProt Q01196, whole entry, looked up: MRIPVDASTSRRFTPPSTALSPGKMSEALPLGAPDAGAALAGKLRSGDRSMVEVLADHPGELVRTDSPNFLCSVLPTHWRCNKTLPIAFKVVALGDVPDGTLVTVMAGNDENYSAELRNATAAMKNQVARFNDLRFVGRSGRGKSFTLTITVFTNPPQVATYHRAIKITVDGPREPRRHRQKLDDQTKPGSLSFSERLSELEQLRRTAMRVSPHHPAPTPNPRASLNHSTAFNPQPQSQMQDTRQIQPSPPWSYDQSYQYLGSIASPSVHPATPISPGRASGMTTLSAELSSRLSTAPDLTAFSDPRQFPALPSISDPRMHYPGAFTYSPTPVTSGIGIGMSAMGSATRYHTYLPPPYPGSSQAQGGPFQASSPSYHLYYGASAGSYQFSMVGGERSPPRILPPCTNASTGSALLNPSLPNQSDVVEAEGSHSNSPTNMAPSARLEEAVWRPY
UniProt Q13951, whole entry, looked up: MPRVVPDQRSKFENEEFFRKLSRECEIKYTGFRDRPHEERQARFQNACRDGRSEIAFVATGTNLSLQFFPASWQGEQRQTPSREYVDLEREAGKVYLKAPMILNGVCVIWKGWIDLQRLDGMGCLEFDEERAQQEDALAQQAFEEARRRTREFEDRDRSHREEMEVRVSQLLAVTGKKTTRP

Setting [1] is: at 59.8 µM (top of the series) unless noted.

This note sets out measurements from PubChem BioAssay AID1477 (National Center for Advancing Translational Sciences (NCATS), 2009).

Several values for one entry are separate records, joined by “and”; a condition that tells them apart may be missing. Identical values can stand only once. The entries are a selection whose mix differs from that of the whole data set. Records with an inconclusive call do not appear. Activity calls are given as the source filed them. Calls come from the whole dose curve; as a rule, active = well fitted curve in the direction sought with a large enough effect; inconclusive = small, poorly fitted or top-dose-only effect, or effect the other way, or another doubt; inactive = no such curve, though single readings can be large or run the other way.

For `O=[N+]([O-])c1ccc(Nc2ccc(Oc3ccc([N+](=O)[O-])cc3[N+](=O)[O-])cc2)c([N+](=O)[O-])c1`, the activity, negative = inhibition under setting [1] was inactive: -4.82%.
On the same count and under the same terms, with `CN(N=O)C(=N)N[N+](=O)[O-]` the figure was inactive: 27.8% [at 21.7 µM]; with `Cc1cc(SC(NC=O)C(Cl)(Cl)Cl)ncn1` (stereo not given), inactive: -6.42%.
For `O=P(Nc1ccccn1)(c1cccc2ccccc12)c1cccc2ccccc12`, under setting [1], the activity, negative = inhibition is inactive: -2.69%.
Turning to `CCOC(=O)Nc1cccc([As](=O)(O)O)c1`, the activity, negative = inhibition under setting [1] was inactive: 1.06%.
On the same count and under the same terms, with `Cc1cc(SC(NC(=O)c2ccccc2)C(Cl)(Cl)Cl)nc(C(C)C)n1` (stereo not given) the figure was inactive: -5.39%; with `CCOC(=O)Nc1ccc([As](=O)(O)O)c(O)c1`, inactive: -1.77%; with `CCC(C)N(CC(C)C)C(=S)SC(NC(C)=O)C(Cl)(Cl)Cl` (stereo not given), inactive: 2.26%.
With `CCOC(=O)c1ccc(NC(=O)C(C)(CCl)SC)cc1` (stereo not given), the activity, negative = inhibition under setting [1] was inactive: 0.882%.
In the case of `O=C(COc1ccccc1)OC1CN2CCC1CC2` (stereo not given), the activity, negative = inhibition under setting [1] is inactive: 4.87%.
In the case of `COP1(=S)c2c(C)nn(CCC#N)c2N=C(c2ccc(F)cc2)N1C` (stereo not given), the activity, negative = inhibition under setting [1] was inactive: 11.6%.
On the same count and under the same terms, with `COc1ccc(N/C(=N/P(=O)(N2CCOCC2)N2CCOCC2)N2CCOCC2)cc1` the figure was inactive: -2.9%.
Still for that read-out and setting: with `COc1cc(I)ccc1[As](=O)(O)O` the figure was inactive: 1.74%; with `COc1ccc2nc(NP(=O)(c3ccccc3)c3ccccc3)sc2c1`, inactive: -1.27%; with `Cc1cc(=O)[nH]c(N[N+](=O)[O-])n1`, inactive: 4.46%.
The same measure, in the same setting: with `O=C(OC1CN2CCC1CC2)C12CC3CC(CC(C3)C1)C2` (stereo not given) the figure was inactive: 1.86%; with `Cc1c2c(nc3ccccc13)SC(C(Cl)Cl)C2` (stereo not given), inactive: 2.22%.
On to `O=[N+]([O-])c1cc([N+](=O)[O-])c(-c2ccn[nH]2)s1`, for which the activity, negative = inhibition under setting [1] was inactive: -5.14%.
As for `CCN(CC)C(=S)SC(NC=O)C(Cl)(Cl)Cl` (stereo not given), the activity, negative = inhibition under setting [1] is inactive: 4.32%.
The same measure, in the same setting: with `CC(C)NC(=O)NP(=O)(Oc1ccccc1)Oc1ccccc1` the figure was inactive: -1.19%.
Same read-out and setting: with `CC(C)c1ccc(OP(=O)(Nc2ccccn2)Oc2ccccc2F)cc1` (stereo not given) the figure was inactive: 4.83%; with `ClCCSc1nnc(-c2cccnc2)o1`, inactive: -5.98%; with `Cc1ccc2nc3c(c(C)c2c1)CC(C(Cl)Cl)S3` (stereo not given), inactive: 6.27%.
Still for that read-out and setting: with `Cc1ccc(OP(=O)(Nc2ccc([N+](=O)[O-])cn2)Oc2ccc(C)cc2)cc1` the figure was inactive: -2.91%; with `C[As](=O)(O)c1cccc(C(=O)O)c1`, inactive: 10.2%.
Consider `O=[As](O)(c1ccc(O)cc1)c1ccccc1O`, for which the activity, negative = inhibition under setting [1] is inactive: -14.9%.
On to `O=[N+]([O-])c1ccc2c(c1)nnn2O`, for which the activity, negative = inhibition under setting [1] is inactive: 0.981%.
Still for that read-out and setting: with `CCOP1(=S)c2c(C)nn(CCC#N)c2N=C(c2ccc(F)cc2)N1C` (stereo not given) the figure was inactive: 2.11%.
As to `CN(C(=O)Cc1ccccc1)[C@@H]1CC[C@]2(CCCO2)C[C@H]1N1CCCC1`, the activity, negative = inhibition under setting [1] is inactive: 6.95% and inactive: 8.62%.
`NC(=O)Nc1ccc([As](=O)(O)O)cc1`: the activity, negative = inhibition is, setting by setting: (at 21.7 µM (top of the series)) inactive: 11.3% and inactive: 2.13%; (at 59.8 µM (top of the series)) inactive: 5.62%.
Consider `O=C(O)COc1ccc([As](=O)(O)O)cc1[N+](=O)[O-]`, for which the activity, negative = inhibition under setting [1] was inactive: 6.35%.
Still for that read-out and setting: with `Nc1ccccc1[As](=O)(O)c1ccccc1` the figure was inactive: 2.77%.
On the same count and under the same terms, with `CS(=O)(=O)c1cc([N+](=O)[O-])c2no[n+]([O-])c2c1` the figure was inactive: -6.86%.
For the compound `O=P(Nc1nccs1)(c1ccccc1)c1nc2ccccc2s1` (stereo not given), the activity, negative = inhibition under setting [1] is inactive: 9.5%.
Take `O=P(Nc1nccs1)(Oc1ccccc1)Oc1ccccc1`: the activity, negative = inhibition under setting [1] is inactive: -0.456%.
Turning to `CCOP1(=S)c2c(C)nn(CCC#N)c2N=C(c2ccccc2F)N1C` (stereo not given), the activity, negative = inhibition under setting [1] was inactive: 3.43%.
The same measure, in the same setting: with `CCOP(=O)(Nc1cccc2ccccc12)OCC` the figure was inactive: 9.92%; with `COc1cc(C2NCCC3(OCCO3)C2(C)C)cc(OC)c1OC` (stereo not given), inactive: 9.24%; with `CCCOP(=S)(Nc1nc(N)cc(=O)[nH]1)OCCC`, inactive: -1.54%.
Take `Nc1cccc2c([As](=O)(O)O)cccc12`: the activity, negative = inhibition under setting [1] is inactive: 9.38%.
`O=[As](O)(c1cccc(O)c1)c1cccc(O)c1`: the activity, negative = inhibition under setting [1] was inactive: -12.8%.
In the case of `Cc1cccc(OCC(=O)OC2CN3CCC2CC3)c1` (stereo not given), the activity, negative = inhibition under setting [1] is inactive: 1.9%.
On the same count and under the same terms, with `COc1cc(C(=O)NCC2(N3CCOCC3)CCCCC2)cc(Cl)c1OC(C)C` the figure was inactive: 6.53%; with `O=[As](O)(O)c1cccnc1`, inactive: 7.06%; with `CN(C(=O)Cc1ccc(Cl)c(Cl)c1)[C@@H]1CC[C@]2(CCCO2)C[C@H]1N1CCCC1`, inactive: 7.72% and inactive: 2.88%.
Turning to `O=C(OC1CN2CCC1CC2)c1ccc(Cl)cc1` (stereo not given), under setting [1], the activity, negative = inhibition is inactive: 8.93%.
For the compound `O=[As](O)(c1ccccc1Br)c1ccccc1Br`, the activity, negative = inhibition under setting [1] was inactive: 2.09%.
Same read-out and setting: with `CN(C(=O)Cc1ccc(Cl)c(Cl)c1)[C@@H]1CCCC[C@H]1N1CCCC1` the figure was inactive: 7.24% and inactive: 5.77% and inactive: -3.9%.
The same measure, in the same setting: with `CC(C)/C=N\N=C(\N)N[N+](=O)[O-]` the figure was inactive: -15.9%.
On to `CC(C)(C)C(=O)NC(Sc1ncccn1)C(Cl)(Cl)Cl` (stereo not given), for which, under setting [1], the activity, negative = inhibition is inactive: 5.1%.
The same measure, in the same setting: with `Clc1n[nH]nc1-c1nn[nH][15n]1` the figure was inactive: 1.86%; with `CN(CCCl)Cc1cc(Cl)c(NC2=NCCN2)c(Cl)c1`, inactive: 11% and inactive: -5.8%.
On the same count and under the same terms, with `CCOP(=O)(Nc1ccc(C)cn1)OCC` the figure was inactive: 8.03%.
The same measure, in the same setting: with `O=P1(Nc2ccccn2)COc2ccccc2OC1` the figure was inactive: 9.32%.
`O=P1(Nc2ccc(Br)cn2)COc2ccccc2OC1`: under setting [1], the activity, negative = inhibition is inactive: 7.14%.
Still for that read-out and setting: with `O=[As](O)(c1cccs1)c1cccs1` the figure was inactive: 16.4%.
Same read-out and setting: with `Cc1ccc(OCC(=O)OC2CN3CCC2CC3)cc1` (stereo not given) the figure was inactive: 4.83%.
Consider `Nc1cccc([As](=O)(O)c2ccccc2)c1`, for which the activity, negative = inhibition under setting [1] was inactive: -6.08%.
Same read-out and setting: with `O=P1(Nc2ncccn2)COc2ccccc2OC1` the figure was inactive: -14.6%; with `O=C(/C=C/c1ccccc1)OC1CN2CCC1CC2` (stereo not given), inactive: 6.85%.
As for `CN(C)C1(CNC(=O)c2ccc(S(C)(=O)=O)cc2)CCCCC1`, under setting [1], the activity, negative = inhibition is inactive: 20.7%.
The same measure, in the same setting: with `CC1CCC(C(C)C)C(OP(=O)(Nc2ccccn2)c2ccccc2)C1` (stereo not given) the figure was inactive: -7.13%.
On the same count and under the same terms, with `Cc1nn(-c2ccccc2)c2c1P(=O)(N1CCOCC1)N(C)C(c1ccccc1)=N2` (stereo not given) the figure was inactive: -0.773%; with `Nc1ccc([As](=O)(O)c2ccc([N+](=O)[O-])cc2)cc1`, inactive: -14.3%.
